# Experimental data from US7837757B2, “Enhanced abscisic acid and fertilizer performance” (Valent BioSciences Corporation, priority 2007, dated 2010).
# This is a selection: effects in other tests are not listed, and their absence says nothing.
# Experiments:
# tomato leaf = tomato leaf phytotoxicity (number of injured leaves) after foliar application
# [1] = tested on: tomato leaf transpiration; assay: tomato leaf transpiration inhibition (porometer, normalized to water-sprayed plants); type: in vivo, Tomato (variety: Rutgers); settings: foliar
substance,measurement,setting,value
ammonium nitrate,number of injured leaves,"tomato leaf; 100 mM NH4NO3 alone, 4 days after treatment, Table 9",8.8
same,number of injured leaves,"tomato leaf; 100 mM ammonium nitrate without ABA, 4 days of treatment",8.8 injured leaves per plant
same,Transpiration rate (% of control),"[1]; 1 mM NH4NO3 alone, 1 day after treatment",107 % of control
same,Transpiration rate (% of control),"[1]; 1 mM NH4NO3 alone, 2 days after treatment",107 % of control
same,Transpiration rate (% of control),"[1]; 1 mM NH4NO3 alone, 3 days after treatment",106 % of control
same,Transpiration rate (% of control),"[1]; 1 mM NH4NO3 alone, 4 days after treatment",83 % of control
same,Transpiration rate (% of control),"[1]; 10 mM NH4NO3 alone, 1 day after treatment",95 % of control
same,Transpiration rate (% of control),"[1]; 10 mM NH4NO3 alone, 2 days after treatment",95 % of control
same,Transpiration rate (% of control),"[1]; 10 mM NH4NO3 alone, 3 days after treatment",131 % of control
same,Transpiration rate (% of control),"[1]; 10 mM NH4NO3 alone, 4 days after treatment",106 % of control
same,Transpiration rate (% of control),"[1]; 100 mM NH4NO3 alone, 1 day after treatment",97 % of control
same,Transpiration rate (% of control),"[1]; 100 mM NH4NO3 alone, 2 days after treatment",97 % of control
same,Transpiration rate (% of control),"[1]; 100 mM NH4NO3 alone, 3 days after treatment",128 % of control
same,Transpiration rate (% of control),"[1]; 100 mM NH4NO3 alone, 4 days after treatment",107 % of control
same,effect on tomato leaf transpiration (in words),"[1]; fertilizer or salt alone at 1, 10 or 100 mM",did not reduce tomato leaf transpiration
